# According to patent US20210355223A1, “Combinations for Treating Cancer” (Pfizer Inc., priority 2018, published 2021):
# System: STATS phosphorylation in lymphocytes
# Assay: flow cytometry of STATS phosphorylation in lymphocytes at time points after administration in mice
# Format: in vivo
# Settings: after administration to mice
# Procedure: RSLAIL-2 is generally referred to as long-acting. For the purposes herein, the long acting nature of an IL-2Rβ biased agonist is typically determined using flow cytometry to measure STATS phosphorylation in lymphocytes at various time points after administration of the agonist to be evaluated in mice. As a reference, the signal is lost by around 24 hours with IL-2 but is sustained for a period greater than that for a long-acting IL-2Rβ-biased agonist.
Substance,duration of STATS phosphorylation signal,time by which STATS phosphorylation signal is lost
"(2,7-(bis-methoxyPEG-carboxyamide)(9H-fluorene-9-yl)methyl N-carbamate)4-6interleukin-2 [RSLAIL-2]",sustained over several days,–
IL-2: IL-2 cytokine used as standard/reference for binding affinity and signal duration [reference compound],–,around 24 hours
